Biological target: mixture of rat brain PKC isozymes (α, β, γ, δ, ε and ζ) (rat)
Assay: cell-based or functional assay

phosphorylation of histone type IIIs (25 µM) by PKC (10 nM): 4.5 fold
Substance: recombinant RACK1 protein (receptor for activated C-kinase, rat brain) (from UniProt P63245 1-317)

From patent US6342368B1, “WD-40-derived peptides and uses thereof” (The Board of Trustees of the Leland Stanford Junior …, priority 1994, dated 2002)
